Earlier results in PMC5681266.

The chains behind the UniProt entries cited, without tags or fusion partners. Residues count along the entry.
UniProt P48061, 22-89: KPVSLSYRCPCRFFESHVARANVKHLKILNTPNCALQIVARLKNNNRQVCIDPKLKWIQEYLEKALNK

Target: CXCL12 (Homo sapiens) (UniProt P48061)
Details: cited from earlier work

In the case of CXCL12 (from UniProt P48061), the Kd is listed as 140 µM.
